Measured values from patent US8492328B2, “Biomarkers and methods for determining sensitivity to insulin growth factor-1 receptor modulators” (Bristol-Myers Squibb Company, priority 2007, dated 2013).
“Also recorded” adds a separate entry of the source.

System: IGF1R-sal, Colo205, RD1, HT-29, WiDr, GEO, MDA-PCa-2b, MCF-7, H3396, N-87, BT474, and SKBR3 cell lines
Test: Drug combination study (Dilution of Ratios) in cellular proliferation assays
Details: in vitro combination with compound 1, multiple cell lines, analyzed by Isobolograms

## cetuximab
  Combination Result: synergistic effects; also recorded: Synergy
